This is a sample that favours compounds with a hit; in the whole collection about 0.53% have one here.
Giardia kill – Giardia lamblia killing. hit rate 0.15% among 340,000. activity change, % at 7.66 µM, hits read low. Giardia lamblia trophozoite viability; in the data active = activity change below about -80%; inconclusive = between about -30% and that limit;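 note: parasites exposed to compound for two days anaerobically before the ATP read; % is set by controls: 0 for no effect and ±100 for the full control effect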
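Compounds were tested on trophozoites seeded at 100 cells/well and held 48 hrs at 37 deg C anaerobically. An ATP-based luminescent kit measured the remaining live cells.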
Rango complex inh – Rango-importin beta binding inhibition; Q14974; Rango CFP/YFP FRET sensor + importin beta, 45 min; Potency, µM (highest dose often 92.2 µM), for inactives: at the top dose inhibition of complex formation; hit rate 0.031% among 340,000; AID 540263;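 note: potency is the fitted concentration of half-maximal effect; 0% = DMSO wells and 100% = buffer wells lacking importin beta; nearly all actives have a fitted effect of over 15% in size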
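FRET biosensor (snurportin 1 IBB flanked by EYFP and cerulean), 50 nM, with compound 5 min, then 0.125 microM importin beta in PBS, 1 mM DTT, 0.02% Tween-20, 0.1% BSA. CFP/YFP ratio read after 45 min at room temperature; pre-read flags interference.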
Rango release inh – inhibition of RanGTP-driven Rango-importin beta dissociation. Biochemical FRET Rango-importin beta, RanGTP-induced dissociation. Potency, µM (top dose mostly 46.1 µM), for inactives: top-dose activity change, negative = inhibition. hit rate 0.071% among 340,000; note: potency is the fitted concentration of half-maximal effect; % of control where 0% means no effect; nearly all actives have a fitted effect of over 45% in size
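Rango FRET biosensor (snurportin-1 IBB flanked by N-terminal EYFP and C-terminal CFP10) at 0.1 uM, with 0.25 uM importin beta in PBS, 1mM DTT, 0.02% Tween-20, 0.1% BSA. 0.6 uM Ran, 2mM GTP and 0.2 uM RCC1 were then added for 45 min at room temperature. Inhibition read as loss of FRET rise.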
CCT modulator – cytosolic chaperonin activity modulation; AID 651819; activity change, % (concentration not given with the values), hits read low; purified chaperonin ATPase assay, HTRF ADP detection, 30 min; hit rate 0.3% among 360,000; in the data active = activity change below about -30%; note: % is set by controls: 0 for no effect and ±100 for the full control effect
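Enzyme 40 or 20 nM (batch-dependent) in Tris pH 7.4/KCl/MgCl2/DTT; cpd 76 uM single point; ATP 10 uM; 30 min 37 °C; Transcreener ADP HTRF detection, 30 min RT; ratio 665/615.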
MmCpn inh – blocks the Methanococcus maripaludis chaperonin Mm-Cpn; Potency, µM (doses to about 76.9 µM), for the others: top-dose activity, negative = inhibition, usual class: inhibitors; AID 504842; purified Mm-Cpn ATPase, ADP Transcreener TR-FRET; hit rate 0.031% among 330,000; active = well fitted inhibition curve with a large enough effect; inconclusive = small, poorly fitted or top-dose-only effect; note: potency is the fitted concentration of half-maximal effect; % is set by controls: 0 for no effect and ±100 for the full control effect; nearly all actives have a fitted effect of over 80% in size
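Purified archaeal chaperonin (25 nM final) was preincubated with compound for 10 min at 37°C, then ATP (10 uM final) was added for 30 min at 37°C in Tris pH 7.4/KCl/MgCl2/DTT buffer. ADP was quantified by HTRF Transcreener TR-FRET.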
* marks the source's active call; other numbers are inactive results; u = inconclusive; x = no result given. Unless noted, calls come from the whole dose curve.

1) O=C(NCCN1CCCCC1)c1ccc(Oc2cc(Cl)cc(Cl)c2)o1
2) CCN(CC)S(=O)(=O)c1ccc(NC(=O)[C@H](CSCc2ccccc2)N2Cc3ccccc3C2=O)cc1
3) Cc1ccc(F)cc1NC(=O)COC(=O)c1ccc(S(C)(=O)=O)c([N+](=O)[O-])c1
4) Cc1cccc(-c2csc(N3CCC(C(N)=O)CC3)n2)c1
5) COc1ccc(C2/C=C\CN([S+](=O)([O-])c3ccc4ccccc4c3)C(C)C(=O)N2Cc2ccc(F)cc2)cc1 (configuration not stated)

Assay by compound,1,2,3,4,5
Giardia kill,-14,-7,-10,x,22
Rango complex inh,-2%,x,x,x,x
Rango release inh,16µM*,x,x,x,x
CCT modulator,1,x,x,x,x
MmCpn inh,0%,x,x,-1%,x

6) Cc1ccc(C)c(NS(=O)(=O)c2ccc3oc(=O)ccc3c2)c1
7) Cc1cc(C)cc(NS(=O)(=O)c2ccc3oc(=O)ccc3c2)c1
8) NCc1cn(Cc2ccccc2)nc1-c1ccccc1
9) O=c1c2ccccc2sc2ccccc12
10) O=c1c2ccccc2sc2ccc(Cl)cc12

Assay by compound,6,7,8,9,10
Giardia kill,1,11,-9,-23,-14
Rango complex inh,-3%,-1%,x,-7%,-4%
Rango release inh,-15%,-1%,x,-17%,-30%
CCT modulator,1,-31*,x,-35*,-26
MmCpn inh,-2%,2%,x,x,u

11) CC12CCC=CC1C(c1ccc3ccccc3c1Br)N(Cc1ccccc1)C2=O (configuration not stated)
12) CCCC1S/C(=N/N=C/c2ccco2)NC1=O (configuration not stated)
13) CCCCC1S/C(=N/N=C/c2ccco2)NC1=O (configuration not stated)
14) Cc1ccc(NC(=O)CSCc2c(C)noc2C)cc1C
15) Cc1cc(C)c(NC(=O)CSCc2c(C)noc2C)c(C)c1

Assay by compound,11,12,13,14,15
Giardia kill,16,-3,-9,0,-8
Rango complex inh,x,-1%,-1%,0%,0%
Rango release inh,x,-1%,23%,-8%,-4%
CCT modulator,x,1,-42*,-44*,-1
MmCpn inh,x,1%,1%,1%,1%

16) C=C(C)C(=O)Nc1cccc(C2=NOC3(C2)C[C@H](C(N)=O)N(C(=O)/C=C/C)C3)c1 (some centres not stated)
17) C=C(C)C(=O)Nc1cccc(C2=NOC3(C2)C[C@@H](C(N)=O)N(C(=O)/C=C/CC)C3)c1 (some centres not stated)
18) NS(=O)(=O)c1ccc(CCNC(=O)c2cc(-c3ccccn3)nc3ccc(Br)cc23)cc1
19) NS(=O)(=O)c1ccc(CCNC(=O)c2cc(-c3ccc(Br)cc3)nc3ccccc23)cc1
20) O=C(c1ccccc1)c1ccc(O)cc1O

Assay by compound,16,17,18,19,20
Giardia kill,-19,-10,-1,-4,-10
Rango complex inh,-4%,-4%,-1%,1%,58µM*
Rango release inh,0%,13%,-7%,-6%,10%
CCT modulator,-50*,-1,-32*,0,0
MmCpn inh,-5%,2%,u,u,-1%

21) O=S(=O)(c1cccc(Cl)c1)N1CCN(c2nc(-c3cccs3)nc3ccccc23)CC1
22) CCOC(=O)c1cc(C(C)(C)C)oc1CNC(=O)c1c(C)oc2c1CCCC2
23) CCOC(=O)c1cc(C(C)(C)C)oc1CN
24) Cc1onc(-c2ccccc2)c1C(=O)Nc1ncc([N+](=O)[O-])s1
25) Cc1ccc(C(=O)Nc2ncc([N+](=O)[O-])s2)cc1

Assay by compound,21,22,23,24,25
Giardia kill,11,6,-10,-94*,-86*
Rango complex inh,x,1%,-2%,1%,u
Rango release inh,x,-7%,23%,-10%,-11%
CCT modulator,x,-54*,1,-2,0
MmCpn inh,x,-2%,1%,1%,-1%

26) Cc1cnc(NC(=O)c2ccc3c(c2)OCCO3)s1
27) Cc1onc(-c2ccccc2)c1C(=O)Nc1nnc(C(C)C)s1
28) Cc1nc2ccc3nc(NC(=O)c4ccc5c(c4)OCCO5)sc3c2s1
29) O=C(Nc1ncc([N+](=O)[O-])s1)c1ccc2c(c1)OCO2
30) Cc1onc(-c2ccccc2)c1C(=O)Nc1ccccc1NC(=O)c1c(-c2ccccc2)noc1C
31) O=C(Nc1ncc([N+](=O)[O-])s1)c1ccco1
32) CCCOc1ccccc1NC(=O)c1c(-c2ccccc2)noc1C
33) Cc1cc(OCCCn2c(CCNC(=O)C3CCCCC3)nc3ccccc32)ccc1Cl

Assay by compound,26,27,28,29,30,31,32,33
Giardia kill,-91*,5,-16,-95*,7,-90*,-9,16
Rango complex inh,0%,2%,0%,-4%,7%,u,58µM*,x
Rango release inh,-3%,-12%,2%,-13%,7%,u,3%,x
CCT modulator,0,-3,-2,-1,0,-1,-1,x
MmCpn inh,-4%,1%,-4%,1%,0%,1%,0%,x

Some of these compounds in order of the Rango complex inh value, highest first.
cpd | mol | Rango complex inh | Rango release inh | CCT modulator | MmCpn inh
26 | Cc1cnc(NC(=O)c2ccc3c(c2)OCCO3)s1 | 0% | -3% | 0 | -4%
6 | Cc1ccc(C)c(NS(=O)(=O)c2ccc3oc(=O)ccc3c2)c1 | -3% | -15% | 1 | -2%
9 | O=c1c2ccccc2sc2ccccc12 | -7% | -17% | -35* | x
